Measured values as given in US12110286B2, “Benzimidazolone derived inhibitors of BCL6” (Cancer Research Technology Limited, priority 2017, dated 2024).

How the values were obtained:
[1] = biological target: endogenous BCL6 protein (Homo sapiens (Human), UniProt P41182); assay: Immunofluorescence-based BCL6 degradation assay; assay type: cell-based; settings: 2 hours with compound
Procedure: Immunofluorescence-Based BCL6 Degradation Assay
DC50 values (compound concentration at which 50% of endogenous BCL6 protein is degraded) were determined in SUDHL-4 cells (American Type Culture Collection) in an immunofluorescence-based assay using an InCell2200 high content imaging system (GE Healthcare). […] After 20 hours cell culture at 37° C./CO2 incubator, compounds were dispensed in the cell culture plate using ECHO550 acoustic dispenser (Labcyte, Inc.), as 8 point-concentration response (ranging from 5 nM to 10 μM) in 0.67% final DMSO concentration. Cells were incubated with compound for 2 hours at 37° C./CO2 incubator followed by fixation in 4.5% formaldehyde (37% formaldehyde solution, Sigma catalogue F8775) at room temperature for 15 min. […] Blocking and cell permeabilisation were performed by incubating the fixed cells for 1 hour at room temperature in 1×TBS, 5% BSA, 1% Triton X100, followed by three washes on PW384 plate washer. Primary and secondary antibodies were prepared in 1×TBS, 1% BSA, 0.2% Triton X100. […] BCL6 expression in the absence or presence of compound was detected on InCell2200 with 20× objective and quantified on InCell Analyser 3.7.2 workstation (GE Healthcare). The % response at each concentration was calculated by normalising BCL6 expression in the presence of compound to the appropriate high (DMSO) and low (DMSO with 7 μM CCT369260) controls.

[2] = biological target: Trx-6×His-BCL6 (human BCL6 BTB domain covering amino-acid sequence 5-129) (Homo sapiens (Human), UniProt P41182); assay: HTRF in vitro assay (BCL6 / BCOR-AF633 peptide); assay type: binding; settings: further generated data; 1 nM Trx-6×His-BCL6, 300 nM BCOR-AF633 peptide, 0.5 nM anti-6×His-Terbium cryptate
Procedure: The % inhibition at each concentration was calculated by normalising FRET ratio to the appropriate high (DMSO with all reagents) and low (DMSO without BCL6) controls.

## Cn1c(=O)n(CCC(C)(C)O)c2cc(Nc3nc(N4CCC(F)(F)C(CO)C4)ncc3Cl)ccc21 (centres unmarked) [Example 35a, 5-((5-chloro-2-(4,4-difluoro-3-(hydroxymethyl)piperidin-1-yl)pyrimidin-4-yl)amino)-3-(3-hydroxy-3-methylbutyl)-1-methyl-1,3-dihydro-2H-benzo[d]imidazol-2-one]
[1]
  Degradation assay in SU-DHL4 cells (pDC50): 6.92
[2]
  HTRF pIC50: 7.15
